Only a part of the results on these compounds is given; other tests are left out.
Test system: Aβ formation in human astroglioma cells (U 373) transfected with human APP751 (U373-K10)
Test: Inhibition of Aβ formation in medium of APP751-overexpressing U373-K10 cells (ELISA)
Conditions: read-out: IC50 value, about 16 hours pre-incubation, then 4 hours supernatant, ELISA 6E10/6B10

Compound | IC50 [µM]
O=c1[nH]c2ccccc2n1C1CCN(CCCc2cnc3ccccn23)CC1 | 6
O=c1[nH]c2ccccc2n1C1CCN(CCc2cnc3ccccn23)CC1 | 12
Cc1nc2ccccn2c1CCN1CCC(n2c(=O)[nH]c3ccccc32)CC1 | 5

— patent US6514969B2, “β-amyloid inhibitors, processes for preparing them, and their use in pharmaceutical compositions” (Boehringer Ingelheim Pharma KG, priority 2000, dated 2003)
